scFv variants of Ab-14 (light chain) against a SARS-CoV-2 spike peptide

The measurements come from Engelhart et al. 2022 (doi:10.1038/s41597-022-01779-4) through the FLAb antibody collection.

Binding partner: SARS-CoV-2 spike HR2 peptide, sequence PDVDLGDISGINAS.

Parent scFv Ab-14: VH joined to VL by a (GGGGS)3 linker. Changes lie in the light chain CDRs alone.
VH: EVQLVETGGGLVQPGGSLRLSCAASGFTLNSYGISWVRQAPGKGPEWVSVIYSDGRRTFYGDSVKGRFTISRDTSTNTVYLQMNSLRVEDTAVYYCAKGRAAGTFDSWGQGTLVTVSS
VL: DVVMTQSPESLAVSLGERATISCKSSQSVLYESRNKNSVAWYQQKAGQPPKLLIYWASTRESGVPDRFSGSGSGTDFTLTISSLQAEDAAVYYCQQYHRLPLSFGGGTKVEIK

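The parent was found by panning a naive human phage display library on the peptide. The library (AAYL50) carries one to three amino acid substitutions per variant, with no insertions or deletions. The scFvs were displayed on barcoded MATa yeast, the peptide on MATalpha yeast. After mating in shaken culture at 30 °C for 16 h, diploids were selected and their barcode pairs sequenced. The ratio of observed to expected reads was calibrated, replicate by replicate, on BCL2-family standards whose Kd was known from biolayer interferometry. The assay was run in three technical replicates.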

Each variant is given by its three light chain CDRs, as the data file delimits them; those of the parent are KSSQSVLYESRNKNSVA, WASTRES, QQYHRLPLS. All variants listed here change Q96 of the VL, counted from its first residue. Each Kd is an estimate from the mating assay, the geometric mean of the replicates in which the pair was seen; lower is stronger. A pair that was not seen in any replicate is written "nd"; this usually means weak binding, but a binder can also be missed. In this assay the parent's reference entry averaged 4.4 nM; its copy inside this library read 48 nM.

The variant KSKQSVLYESRNKNSVA, WASTRES, QMNHRLPLS showed 490 µM (1 of 3 replicates).
The variant KSSQSVLYRSRNKNSVA, WASTRES, QKYHRLKLS showed 40 µM (1 of 3 replicates).
The variant KSSQSVLYESRNKGSVA, WASTRES, QMYHRLPLS showed 5.8 µM (1 of 3 replicates).
The variant ESSQSVLYEMRNKNSVA, WASTRES, QFYHRLPLS showed nd (0 of 3 replicates).
The variant KSFQSVLYESRNKNSVK, WASTRES, QYYHRLPLS showed nd (0 of 3 replicates).
The variant KSSQSVWYESRNKGSVA, WASTRES, QSYHRLPLS showed 180 nM (3 of 3 replicates).
The variant KSSQSVLYESRNKNSVA, WASTRPS, QKYQRLPLS showed 310 nM (1 of 3 replicates).
The variant KSSQSVLYESRNHNSVA, WASTRIS, QVYHRLPLS showed nd (0 of 3 replicates).
The variant KSSQSVLYESRNKNSVA, WASTRES, VDYHRLVLS showed 42 µM (1 of 3 replicates).
The variant KCSQSVTYESRNKNSVA, WASTRES, QRYHRLPLS showed 6.8 µM (1 of 3 replicates).
The variant KSSQSVLYESRNKNSVA, WASTRES, QKYHKLLLS showed 31 µM (1 of 3 replicates).
The variant KHSQSVCYESRNKNSVA, WASTRES, QLYHRLPLS showed 62 µM (1 of 3 replicates).
The variant KSSQSVLYESRNKNSVA, WASTPES, VWYHRLPLS showed nd (0 of 3 replicates).
The variant KSSQSVLYESRNKNSVA, WASTRES, QYYHRAFLS showed nd (0 of 3 replicates).
The variant KSSQSVLYEIRNKNMVA, WASTRES, QLYHRLPLS showed nd (0 of 3 replicates).
The variant KSSQSVLYESSNKNSVA, WASTRES, YFYHRLPLS showed nd (0 of 3 replicates).
The variant KSSQSVLYESRHKNSVA, WYSTRES, QKYHRLPLS showed nd (0 of 3 replicates).
The variant KSSQSVLYESRNKNSDA, WASTRES, QAHHRLPLS showed 100 µM (2 of 3 replicates).
The variant KSSQSVPYESYNKNSVA, WASTRES, QDYHRLPLS showed 5.9 nM (3 of 3 replicates).
The variant KSSQSVLYESRNKNSGA, WASTRES, QEYHRLPLP showed 56 µM (2 of 3 replicates).
The variant KSSTSVLYESRNKNSVS, WASTRES, QRYHRLPLS showed 27 µM (2 of 3 replicates).
The variant KSSQSVYYESRNKNSVA, WASTRES, QRYHALPLS showed nd (0 of 3 replicates).
The variant KSSQSVLYESRNKNSVA, WASWRES, IEYHRLPLS showed 450 nM (3 of 3 replicates).
The variant KSSQSVLYESRNKNSVA, WASQRES, QYRHRLPLS showed nd (0 of 3 replicates).
The variant KSSQSVLYESRNKNSVA, WASTRES, QTYHYLPLS showed 17 nM (3 of 3 replicates).
The variant KSSQSVLYESRNKNSVA, WASTREH, QFYHRCPLS showed nd (0 of 3 replicates).
The variant KSSQSVLYESRNKNSVA, WACVRES, QCYHRLPLS showed 5.7 µM (2 of 3 replicates).
The variant KSSQSVLYESRNKNSVA, WASTRES, QDYHRLPLS showed 800 nM (3 of 3 replicates).
The variant KWSQSVLYESGNKNSVA, WASTRES, QKYHRLPLS showed nd (0 of 3 replicates).
The variant KSSQSVLYESLNKNSVA, WASTRES, QYYGRLPLS showed 1.9 nM (3 of 3 replicates).
The variant KSSQSVLYYSRNKNSVA, WANTRES, QTYHRLPLS showed nd (0 of 3 replicates).
The variant KSSQSCLYEFRNKNSVA, WASTRES, QYYHRLPLS showed 37 µM (3 of 3 replicates).
The variant KSQQSVLYESRNKNSSA, WASTRES, QCYHRLPLS showed 6.2 µM (2 of 3 replicates).
The variant KSSQSVLYEGRNKNSVA, WASTRES, QEYHRSPLS showed 13 µM (1 of 3 replicates).
The variant KSSQSVLYESRNKNSVA, WASTRES, MYYHRQPLS showed 1.6 µM (1 of 3 replicates).

Extract of 5 entries:

CDR-L1	CDR-L2	CDR-L3	Kd (apparent)	replicates with signal
KSSQSVLYESRHKNSVA	WYSTRES	QKYHRLPLS	nd	0 of 3
KSSTSVLYESRNKNSVS	WASTRES	QRYHRLPLS	27 µM	2 of 3
ESSQSVLYEMRNKNSVA	WASTRES	QFYHRLPLS	nd	0 of 3
KSSQSVYYESRNKNSVA	WASTRES	QRYHALPLS	nd	0 of 3
KSSQSVLYESRNKNSVA	WASTRES	MYYHRQPLS	1.6 µM	1 of 3

Background: pairings of library AAYL50 with three empty control strains gave a value in 18% of cases (median 15 µM, 5th percentile 970 nM). Values in that range, when seen in few replicates, are hard to tell from nonspecific mating.